## Measured affinities in a library of Ab-14 heavy chain variants

Data: MIT Lincoln Laboratory AlphaSeq set, Engelhart et al. 2022, doi:10.1038/s41597-022-01779-4, as distributed in FLAb.

Binding partner: SARS-CoV-2 spike HR2 peptide, sequence PDVDLGDISGINAS.

Ab-14 is the parent antibody, in scFv form: VH, then three GGGGS repeats, then VL. The light chain is unchanged in all variants.
VH: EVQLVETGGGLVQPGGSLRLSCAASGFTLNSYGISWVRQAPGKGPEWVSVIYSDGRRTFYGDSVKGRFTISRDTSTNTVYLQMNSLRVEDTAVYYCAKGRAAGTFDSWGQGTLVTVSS
VL: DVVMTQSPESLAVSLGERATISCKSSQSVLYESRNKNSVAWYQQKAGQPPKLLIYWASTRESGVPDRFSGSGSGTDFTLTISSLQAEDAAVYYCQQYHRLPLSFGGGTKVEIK

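AAYL49 was designed without a model: most single CDR substitutions and a random sample of double and triple ones. AlphaSeq pools MATa yeast showing the antibodies with MATalpha yeast showing the peptide. Mating (16 h, 30 °C) was followed by selection of diploids and sequencing of their barcodes. Read counts were normalised to the haploid input and turned into Kd by a linear fit to BCL2-family pairs of known affinity, for each replicate. Mating was done three times.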

Each variant is given by its three heavy chain CDRs, as the data file delimits them; those of the parent are GFTLNSYGIS, VIYSDGRRTFYGDSVK, GRAAGTFDS. The read-out is the apparent dissociation constant on a log10 scale (nM): the lower, the stronger. Averages over replicates are reported, and they cover detected replicates only. "not detected" marks a missing value. The strain was present, yet no cells mated with the target were sequenced in any replicate, which points to weak or no binding. Three control strains display no target. For library AAYL49, 15% of the pairings with them gave a signal, with a median of 4.06 and one signal in twenty below 2.83, so weak values seen in few replicates may be background. For reference, the parent read 0.65 as the reference entry and 4.11 (one replicate of three) as a member of this library.

| CDR-H1 | CDR-H2 | CDR-H3 | mean, log10 nM | replicates with signal |
|---|---|---|---|---|
| YFTLNSQGIS | VIYSDGRRTFYGDSVK | GRIAGTFDS | 2.56 | 3/3 |
| GFTLNSYGIP | LIYSDGRRTFYGDSVK | GRAAQTFDS | not detected | 0/3 |
| GFTLNSYGQS | VIYSDGRNTFYGDSVK | SRAAGTFDS | not detected | 0/3 |
| GFTLNAYGIS | VIRSDGRRVFYGDSVK | GRAAGTFDS | not detected | 0/3 |
| QFTLNDYGIS | VIYSDGRRTFYGDSVK | GRTAGTFDS | 0.47 | 3/3 |
| WFTLNSYGIS | VIYSDMRRTFYGDSVK | GRALGTFDS | 3.58 | 3/3 |
| GFTLNSYGIS | VIYSYGRRTFYGDSVK | GEAAGTSDS | 2.31 | 1/3 |
| GFTLMSYGIS | VIYSDGTRTFYGDSVK | GRKAGTFDS | 3.90 | 3/3 |
| GKTLNSYGIS | VCYSDGRRTAYGDSVK | GRAAGTFDS | not detected | 0/3 |
| GFMLNSYGES | VIYSDGRRIFYGDSVK | GRAAGTFDS | 4.41 | 3/3 |
| GFTLNSYGIS | MIYSDGRRTFYGDSSK | GRAAGTFDS | not detected | 0/3 |
| GFTLNSYGIS | CIYSDGRRSFYGDPVK | GRAAGTFDS | not detected | 0/3 |
| GFPLNSYGIS | VIYSDGRRTFYIDSVK | GRAAGTIDS | 1.94 | 3/3 |
| GFILNSYGIS | VIYSDGRRTFYGDSVK | GRPAGTFDS | 3.59 | 3/3 |
| GFTLYSYGIS | VIYHDGRRTFYGDSVK | GRAAGTFDS | 2.21 | 3/3 |
| GFTLNSYGIS | VIYSDGRRMLYGDSVK | GAAAGTFDS | 2.73 | 3/3 |
| GFTLNSYGIS | VVYSDHRRTFYGDSDK | GRAAGTFDS | not detected | 0/3 |
| GFTLNSYGIS | MIYSDGRRTSYGDSVK | GRAAGWFDS | not detected | 0/3 |
| GFTLNSYGIS | VIPSDARRTFYGDSVK | GRAAGTFDS | 3.60 | 2/3 |
| GFQLNRYGIS | VIYSDGRRTLYGDSVK | GRAAGTFDS | 3.20 | 1/3 |
| GTTLNSYGIS | VWYSDGRRTFYGGSVK | GRAAGTFDS | not detected | 0/3 |
| GFTLNSYGIS | VIYSDGRRTFYGDSVK | RIAAGTFDS | not detected | 0/3 |
| EFTLNSYGIS | VIYWDGRRSFYGDSVK | GRAAGTFDS | 2.06 | 3/3 |
| GFTLNSYGIS | VIYSDGRRTFYGDSVK | GRAWVTMDS | 1.36 | 3/3 |
| GFTLNSYGIF | VIYSDGRRTFYGDSVK | GEAAGPFDS | not detected | 0/3 |
| GFTLNSSGIS | VIYSDGRRTFYGDSVK | GRAAFTFDE | 2.36 | 1/3 |
| GFTLNSYGIS | FIYSDGRRTHYGDSVK | FRAAGTFDS | 4.42 | 1/3 |
| GFELNSYGIS | VIYSDGRRTFAGDSFK | GRAAGTFDS | 1.55 | 3/3 |
| GFTLNSYGIS | VIYSDFRRTAYGDSVK | GRAAGTFDS | 5.38 | 1/3 |
| GFTLNSYGIS | VIFSDIRRTFYGDSVK | GRNAGTFDS | not detected | 0/3 |
| GHTLNSYGIS | VIYSDRRRTFYGDSVK | GRAAGTFDS | 4.67 | 2/3 |

Second part, the sequence after the result:

| mean, log10 nM | replicates with signal | CDR-H1 | CDR-H2 | CDR-H3 |
|---|---|---|---|---|
| not detected | 0/3 | GFTLNSYGTS | VIYSEGRRTFYGDSAK | GRAAGTFDS |
| 4.51 | 2/3 | GFTLNSYGIE | VIYSDGRRTFYGDSEP | GRAAGTFDS |
| 4.98 | 1/3 | GFTLNSYGHS | VIYSDGRRTFYGDSVK | GRAAPTFIS |
| 3.29 | 1/3 | GQTLNSYGIS | VIYSLGRRTFYGQSVK | GRAAGTFDS |
| 5.18 | 3/3 | GFTLNSYGIS | HDYSDGRETFYGDSVK | GRAAGTFDS |
| not detected | 0/3 | GFTLNSYGIS | VFYSDGRRTNYGDSVK | GRAAGTFDG |
| 5.13 | 2/3 | GFTTNSYTIS | VMYSDGRRTFYGDSVK | GRAAGTFDS |
| 1.45 | 3/3 | GFTLNSYGIS | VIYSDGRRTFYGDSVK | GRAAGQTRS |
| 2.73 | 2/3 | GFVLASYGIS | VIYSDGRRTFYGDSVK | LRAAGTFDS |
| 4.66 | 3/3 | GFTLNSIGIS | VIYSDGRRQFYGDSVK | GRAAGTPDS |
| not detected | 0/3 | GGTLNSYGIS | VIYSDTRRTFYGDSVK | GRAAGTFDS |
| 1.75 | 3/3 | GFTLNHYWRS | VIYSDGRRTFYGDSVK | GRAAGTFDS |
| not detected | 0/3 | GFTLNSHQIS | VIYPDGRRTFYGDSVK | GRAAGTFDS |
| 3.24 | 3/3 | GFTLNSYGIS | VIYSDGRHTRYGDSVK | GRAAGTKDS |
| 2.67 | 2/3 | GFTLNSYGIS | VIYSDGRRTFYTDSVI | GRAAGTFDS |
| not detected | 0/3 | GFTLNSYGIS | VIYSDGRRTFYGGSVK | GRCAGYFDS |
| 4.76 | 1/3 | GMTYNSNGIS | VIYSDGRRTFYGDSVK | GRAAGTFDS |
| not detected | 0/3 | GFTLNSYGIS | VIYSDGRRTFCGASVK | GRRAGTFDS |
| not detected | 0/3 | GFTLNSYGAS | VIYSDGRRTFYGDSVK | GIAAGTFDK |
| not detected | 0/3 | GFLLNSYGIS | VIYSDGGRTFYGDMVK | GRAAGTFDS |
| 5.42 | 1/3 | GFTLNHYGIS | WIYGDGRRTFYGDSVK | GRAAGTFDS |
| 3.18 | 1/3 | GFTLNSYGIS | VIYSDVHRTFYGDSVK | GRAAGTFDS |
| not detected | 0/3 | GFTLNSYGIS | VIYSDGNKTFYGASVK | GRAAGTFDS |
| 2.84 | 1/3 | GFTLNSYYIS | VIESYGRRTFYGDSVK | GRAAGTFDS |
| 4.80 | 2/3 | GNTLNSYGIS | VIYSDGRRTFYGDSVK | GRANGTFDM |
| 4.88 | 3/3 | GFTLNSPMIS | VIYSDGRRTFYGDVVK | GRAAGTFDS |
| not detected | 0/3 | GFTLNSYGIV | VIYSDGRRTFYGDSKK | GRAAGTKDS |
| 2.06 | 3/3 | GFQLNSYGIS | VIYSDGRRTFFEDSVK | GRAAGTFDS |
| 2.64 | 3/3 | GFTLNSYGIS | VIYSDGRRTFYGDSVL | GRKAGTFDS |
| 3.98 | 1/3 | GFGLNSYGIS | VIYSDGFRTFYGDSVK | ARAAGTFDS |
| 5.62 | 1/3 | GQTLNSYGIS | VIYSDGRRTFYGDSVE | GRAAGTFDL |

4 of these entries, quoted again:

CDR-H1	CDR-H2	CDR-H3	mean, log10 nM	replicates with signal
GFLLNSYGIS	VIYSDGGRTFYGDMVK	GRAAGTFDS	not detected	0/3
GFTLNSYGIS	VIYSDGRRTFYGDSVK	GRAWVTMDS	1.36	3/3
GFTLNSYGHS	VIYSDGRRTFYGDSVK	GRAAPTFIS	4.98	1/3
GFTLNSYGIS	VIYSYGRRTFYGDSVK	GEAAGTSDS	2.31	1/3